## AlphaSeq binding of Ab-95 light chain variants to a spike HR2 peptide

Data: MIT Lincoln Laboratory AlphaSeq set, Engelhart et al. 2022, doi:10.1038/s41597-022-01779-4, as distributed in FLAb.

Antigen: PDVDLGDISGINAS, a 14-residue peptide of the SARS-CoV-2 spike HR2 region.

The variants keep the heavy chain, the linker and the frameworks of Ab-95 (scFv order VH, a (GGGGS)3 linker, VL).
VH: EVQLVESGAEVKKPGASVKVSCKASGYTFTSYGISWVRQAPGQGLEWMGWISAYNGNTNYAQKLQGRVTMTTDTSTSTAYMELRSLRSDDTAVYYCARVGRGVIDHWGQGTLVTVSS
VL: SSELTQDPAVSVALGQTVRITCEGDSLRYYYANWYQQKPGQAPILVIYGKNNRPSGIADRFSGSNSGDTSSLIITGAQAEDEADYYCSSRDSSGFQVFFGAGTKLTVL

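Phage display of a naive human antibody library on the peptide gave the parent. The library (AAYL52) carries one to three amino acid substitutions per variant, with no insertions or deletions. The assay is AlphaSeq: two haploid yeast populations carry antibody and antigen on their surface. Binding brings cells together so that they mate, and sequencing counts the barcode pairs among the diploids. Scores were corrected for input abundance and mapped to Kd with protein pairs of known affinity run in the same pool. The assay was run in three technical replicates.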

Each variant is given by its three light chain CDRs, as the data file delimits them; those of the parent are EGDSLRYYYAN, GKNNRPS, SSRDSSGFQVF. Values are log10 of the apparent Kd in nM; lower means stronger binding. Replicates are averaged; those with no signal do not enter the mean. A pair that was not seen in that replicate is written "nd"; this usually means weak binding, but a binder can also be missed.

{"CDR-L1": "EGDSLRYYYAN", "CDR-L2": "GKNNRPS", "CDR-L3": "SSRDSSQSQVF", "replicates, log10 nM": "3.60 nd nd", "mean log10 Kd (nM)": "3.60", "signal with controls": "3/9 (3.08)"}
{"CDR-L1": "EGDSLRYRYAE", "CDR-L2": "GKNNRPS", "CDR-L3": "SSRDSSGFQVF", "replicates, log10 nM": "2.84 3.91 nd", "mean log10 Kd (nM)": "3.37", "signal with controls": "2/9 (3.19)"}
{"CDR-L1": "EGDSLRGYYGN", "CDR-L2": "GKNGRPS", "CDR-L3": "SSRDSSGFQVF", "replicates, log10 nM": "2.26 2.68 1.95", "mean log10 Kd (nM)": "2.30", "signal with controls": "2/9 (3.54)"}
{"CDR-L1": "EGDSLRYYYAN", "CDR-L2": "GKANRPS", "CDR-L3": "SSRDSSGFQVF", "replicates, log10 nM": "2.70 2.86 2.12", "mean log10 Kd (nM)": "2.56", "signal with controls": "0/9"}
{"CDR-L1": "EGQSLRYYGAN", "CDR-L2": "GKNHRPS", "CDR-L3": "SSRDSSGFQVF", "replicates, log10 nM": "2.93 3.14 2.49", "mean log10 Kd (nM)": "2.86", "signal with controls": "3/9 (4.06)"}
{"CDR-L1": "EGDSLRYYYAN", "CDR-L2": "GKNHRPS", "CDR-L3": "SSRDSVGFCVF", "replicates, log10 nM": "4.08 4.26 nd", "mean log10 Kd (nM)": "4.17", "signal with controls": "4/9 (3.89)"}
{"CDR-L1": "EGDSLRYYYAN", "CDR-L2": "GKNNRPS", "CDR-L3": "SSRDSSEYQSF", "replicates, log10 nM": "4.93 nd nd", "mean log10 Kd (nM)": "4.93", "signal with controls": "1/9 (3.57)"}
{"CDR-L1": "EGDSLRYYYAN", "CDR-L2": "GKNNQPS", "CDR-L3": "SSRCSSYFQVF", "replicates, log10 nM": "nd nd nd", "mean log10 Kd (nM)": "nd", "signal with controls": "1/9 (3.55)"}
{"CDR-L1": "EGDSLRYYYAN", "CDR-L2": "GKNNRPS", "CDR-L3": "SSRDWSGLQVF", "replicates, log10 nM": "nd 2.85 nd", "mean log10 Kd (nM)": "2.85", "signal with controls": "0/9"}
{"CDR-L1": "EGDSLRYYQAN", "CDR-L2": "GKNNRPS", "CDR-L3": "SSRDSSGPQVS", "replicates, log10 nM": "4.32 3.37 3.04", "mean log10 Kd (nM)": "3.58", "signal with controls": "1/9 (5.54)"}
{"CDR-L1": "EGDSLRYYYAN", "CDR-L2": "GFNNRPS", "CDR-L3": "SSRDTSGFGVF", "replicates, log10 nM": "4.26 3.84 4.22", "mean log10 Kd (nM)": "4.11", "signal with controls": "4/9 (3.56)"}
{"CDR-L1": "EEDSLRYYYAN", "CDR-L2": "GKNNRPS", "CDR-L3": "SSRDSSGKQHF", "replicates, log10 nM": "2.33 2.01 2.47", "mean log10 Kd (nM)": "2.27", "signal with controls": "1/9 (3.50)"}
{"CDR-L1": "EPDSLRYYYAN", "CDR-L2": "GKNNRPS", "CDR-L3": "SSRFSDGFQVF", "replicates, log10 nM": "5.41 3.98 nd", "mean log10 Kd (nM)": "4.69", "signal with controls": "3/9 (3.59)"}
{"CDR-L1": "EGDSLRYYYAN", "CDR-L2": "GQNNQPS", "CDR-L3": "HSRDSSGFQVF", "replicates, log10 nM": "nd 3.46 nd", "mean log10 Kd (nM)": "3.46", "signal with controls": "0/9"}
{"CDR-L1": "CGDSLRYYYAP", "CDR-L2": "EKNNRPS", "CDR-L3": "SSRDSSGFQVF", "replicates, log10 nM": "4.34 nd 3.99", "mean log10 Kd (nM)": "4.17", "signal with controls": "2/9 (4.18)"}
{"CDR-L1": "EGDSLRYYYWQ", "CDR-L2": "GKNNRPS", "CDR-L3": "SSRDSSGFQKF", "replicates, log10 nM": "nd nd 4.03", "mean log10 Kd (nM)": "4.03", "signal with controls": "1/9 (3.31)"}
{"CDR-L1": "EGDSLMYYYAN", "CDR-L2": "GKNNRPS", "CDR-L3": "SSRDSSGFQVF", "replicates, log10 nM": "3.91 3.62 3.58", "mean log10 Kd (nM)": "3.70", "signal with controls": "1/9 (3.75)"}
{"CDR-L1": "EGDSLRPYYAN", "CDR-L2": "GKNNRPS", "CDR-L3": "SSRDNAGFQVF", "replicates, log10 nM": "nd nd nd", "mean log10 Kd (nM)": "nd", "signal with controls": "1/9 (4.86)"}
{"CDR-L1": "EGDSLRYYYAN", "CDR-L2": "GKNNRPS", "CDR-L3": "SHTRSSGFQVF", "replicates, log10 nM": "3.19 4.85 nd", "mean log10 Kd (nM)": "4.02", "signal with controls": "2/9 (3.63)"}
{"CDR-L1": "EGDSLRGYYAN", "CDR-L2": "GKNNRPA", "CDR-L3": "SSRVSSGFQVF", "replicates, log10 nM": "2.25 2.23 1.09", "mean log10 Kd (nM)": "1.86", "signal with controls": "4/9 (3.95)"}
{"CDR-L1": "EGYSLRYVYAN", "CDR-L2": "GQNNRPS", "CDR-L3": "SSRDSSGFQVF", "replicates, log10 nM": "2.75 2.10 2.15", "mean log10 Kd (nM)": "2.33", "signal with controls": "4/9 (3.69)"}
{"CDR-L1": "EGDALRYYYAD", "CDR-L2": "GKNNRPS", "CDR-L3": "SSRDSSGFQTF", "replicates, log10 nM": "3.68 nd 1.95", "mean log10 Kd (nM)": "2.81", "signal with controls": "4/9 (3.78)"}
{"CDR-L1": "EGDSLRYYYFD", "CDR-L2": "GKNNRFS", "CDR-L3": "SSRDSSGFQVF", "replicates, log10 nM": "4.85 nd 4.30", "mean log10 Kd (nM)": "4.58", "signal with controls": "5/9 (4.25)"}
{"CDR-L1": "EGDSLSYYYCN", "CDR-L2": "GKNNEPS", "CDR-L3": "SSRDSSGFQVF", "replicates, log10 nM": "4.25 nd 4.11", "mean log10 Kd (nM)": "4.18", "signal with controls": "2/9 (3.29)"}
{"CDR-L1": "EGDILRYTYAN", "CDR-L2": "GKNNRPS", "CDR-L3": "SSRDSSGFQAF", "replicates, log10 nM": "2.04 2.20 1.98", "mean log10 Kd (nM)": "2.07", "signal with controls": "3/9 (4.08)"}
{"CDR-L1": "EGDSLRYYYAN", "CDR-L2": "GKAFRQS", "CDR-L3": "SSRDSSGFQVF", "replicates, log10 nM": "3.67 3.37 4.13", "mean log10 Kd (nM)": "3.72", "signal with controls": "4/9 (4.18)"}
{"CDR-L1": "EGDSLRYYYAN", "CDR-L2": "GKNNPPS", "CDR-L3": "SWRDSSGFQVF", "replicates, log10 nM": "nd nd nd", "mean log10 Kd (nM)": "nd", "signal with controls": "3/9 (4.27)"}
{"CDR-L1": "EGDGLRYYIAN", "CDR-L2": "GKNNRPS", "CDR-L3": "SSRDSVGFQVF", "replicates, log10 nM": "2.99 4.10 nd", "mean log10 Kd (nM)": "3.55", "signal with controls": "3/9 (3.84)"}
{"CDR-L1": "EGDSLRYYYAN", "CDR-L2": "LMNNRPS", "CDR-L3": "SSRDSSGFQMF", "replicates, log10 nM": "5.57 nd 3.91", "mean log10 Kd (nM)": "4.74", "signal with controls": "5/9 (4.17)"}

For reference, 4 entries of the list once more:

{"CDR-L1": "EGDALRYYYAD", "CDR-L2": "GKNNRPS", "CDR-L3": "SSRDSSGFQTF", "replicates, log10 nM": "3.68 nd 1.95", "mean log10 Kd (nM)": "2.81", "signal with controls": "4/9 (3.78)"}
{"CDR-L1": "CGDSLRYYYAP", "CDR-L2": "EKNNRPS", "CDR-L3": "SSRDSSGFQVF", "replicates, log10 nM": "4.34 nd 3.99", "mean log10 Kd (nM)": "4.17", "signal with controls": "2/9 (4.18)"}
{"CDR-L1": "EGYSLRYVYAN", "CDR-L2": "GQNNRPS", "CDR-L3": "SSRDSSGFQVF", "replicates, log10 nM": "2.75 2.10 2.15", "mean log10 Kd (nM)": "2.33", "signal with controls": "4/9 (3.69)"}
{"CDR-L1": "EGDSLRYYYAN", "CDR-L2": "GKANRPS", "CDR-L3": "SSRDSSGFQVF", "replicates, log10 nM": "2.70 2.86 2.12", "mean log10 Kd (nM)": "2.56", "signal with controls": "0/9"}

As a blank, each scFv also met three strains without target: over library AAYL52, 28% of these pairings were detected, typically at 3.91 and seldom below 2.90. Also given: how often the same scFv was detected with the empty control strains, with their mean in brackets.